Data published in US20190023806A1 (QOOLABS, published 2019).

By UniProt entry, the sequences of proteins in these tests, tags left out. Chains listed by the source or under a name are the forms on record and can include a tag or linker. Residues count along the entry.
UniProt P69905, 2-142 limits assumed, chain 1 of 2: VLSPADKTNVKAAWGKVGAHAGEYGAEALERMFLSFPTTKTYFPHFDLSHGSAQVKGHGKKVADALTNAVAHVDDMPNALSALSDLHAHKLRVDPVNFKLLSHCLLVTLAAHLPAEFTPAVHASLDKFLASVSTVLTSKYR
hemoglobin S (alpha2 betaS2), UniProt P68871, other isoform, or with tags, fused parts or gaps limits assumed, chain 2 of 2: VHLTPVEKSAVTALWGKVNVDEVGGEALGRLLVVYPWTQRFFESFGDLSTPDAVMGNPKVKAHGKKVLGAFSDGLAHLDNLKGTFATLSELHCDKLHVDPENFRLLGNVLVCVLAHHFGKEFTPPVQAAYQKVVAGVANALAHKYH
hemoglobin A (alpha2 beta2), UniProt P68871, 2-147 limits assumed, chain 2 of 2: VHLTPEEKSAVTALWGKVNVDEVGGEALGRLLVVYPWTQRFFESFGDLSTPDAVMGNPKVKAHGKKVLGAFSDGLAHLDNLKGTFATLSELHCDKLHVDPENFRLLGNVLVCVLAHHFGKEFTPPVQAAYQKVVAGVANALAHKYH
hemoglobin A2 (alpha2 delta2), UniProt P02042, 2-147 limits assumed, stated change not applied, chain 2 of 2: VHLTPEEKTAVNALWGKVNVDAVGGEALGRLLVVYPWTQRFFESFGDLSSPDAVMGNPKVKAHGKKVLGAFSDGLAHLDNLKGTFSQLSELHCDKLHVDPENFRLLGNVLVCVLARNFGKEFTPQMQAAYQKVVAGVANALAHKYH

Experiments:
Experiment in all cases: direct ELISA: hemoglobin coated on the plate, antibody produced by the clone applied (concentration not given), HRP goat anti-llama antibody
[1] = molecular target: hemoglobin S (alpha2 betaS2) (human, UniProt P69905 2-142; P68871 2-147, Native tetramer alpha2 betaS2 with heme; one copy of each chain is given.)
Procedure: (§1) In vitro screening was performed using biotinylated peptides specific to each variants and magnetic beads cell sorting. Multiple positive clones for HbA, HbS, and HbA2 were identified. […] Hemoglobin was coated on the plate directly and antibodies produced by each clone were applied and detected with HRP goat anti-llama antibody.

[2] = molecular target: hemoglobin A (alpha2 beta2) (human, UniProt P69905 2-142; P68871 2-147)
Procedure: as §1

[3] = molecular target: hemoglobin A2 (alpha2 delta2) (human, UniProt P69905 2-142; P02042 2-147)
Procedure: as §1

B1: 172P1D3 (VHH)
VHH: QVQLVESGGGLVQAGGSLRLSCAASGRITSYYGVGWFRQAPGKGREFVAVVTWNAGITFYADSVKGRFTISRDNAKNTVYLQMNGLKPEDTAVYYCAAGVFRARGYTLSGEYEYWGQGTQVTVS
notes: also called Clone 172P1D3
B1: binds [1]; binds [2]; binds [3].

B2: 173B10 (VHH)
VHH: QVQLVESGGGLVQAGGSLRLSCVASGKIFSPNDMGWYRQVPGKQRELVAAMSSRGFTNYAESLTDRFTVSRDNAKNTVYLQMNGLKPDDTAVYYCYLWTAGDNFWGQGTQVTVS
notes: also called Clone 173B10
B2: binds [1].

B3: 172P2D9 (VHH)
VHH: QLVESGGGLVQDGDSLRLACAASATTVDINSMGWYRQAPGKQRELVASINTRGCTVYTDSVEGRFIIYRDDTKNTLYLQMYSLKSEDTAVYYCGADWRTNGYFYWGQGTQVIVS
notes: also called Clone 172P2D9
B3: binds [1]; binds [2]; binds [3].

B4: 175G2 (VHH)
VHH: QVQLVESGGGLVQAGGSLRLSCAASGIIFNTHTMAWYRQAPGKQRELVGRITFTGRTIYILDAVKGRFSISRNTADNTLTLQMNSLKPEDTAVYYCQTRNIRNNNENWGQGTQVTVS
notes: also called Clone 175G2
B4: binds [3].

B5: 175H11 (VHH)
VHH: QVQLVESGGGLVQAGGSLRLSCAASGRTLSRYAISWFRQAPGKEREFVGRITWSGSTNIADSVKGRFTISRDNAKNTVYLQMNSLKPEDTAVYYCAAAPYGTMSYDYWGQGTQVSVS
notes: also called Clone 175H11
B5: binds [3].

B6: Clone 172P2E8 (VHH)
VHH: QVQLVESGGGLVQDGGSLRLACVASRSTRDINSMGWYRQAPGEQREFVASIGWQGATVYADSVEGRFTISRDDAKNTLYLQMNSLKPEDTAVYYCGADWRTYGYFYWGQGTQVTVS
notes: Any tag from the phage display vector is not specified for this assay
B6: binds [2]; binds [3].

B7: 173B1 (VHH)
VHH: QVQLVESGGGLVQAGGSLRLSCVASGRIFSPNDMGWYRQVPGKQRELVAGMSSRGFTQYAESMEGRVTISRNNAENTAYLQMNGLQPDDTAVYYCYLWTEGHNFWGQGTQVTVS
notes: also called Clone 173B1
B7: binds [1].
